Laboratory results as given in US6391870B2, “Pyrrolo [2,1-b][1,3]benzothiazepines with atypical antipsychotic activity” (Sigma-Tau Industrie Farmaceutiche Riunite S.p.A., priority 1998, dated 2002).

Chains of the proteins cited; added tags and fusions are not shown.
UniProt P19020, whole entry: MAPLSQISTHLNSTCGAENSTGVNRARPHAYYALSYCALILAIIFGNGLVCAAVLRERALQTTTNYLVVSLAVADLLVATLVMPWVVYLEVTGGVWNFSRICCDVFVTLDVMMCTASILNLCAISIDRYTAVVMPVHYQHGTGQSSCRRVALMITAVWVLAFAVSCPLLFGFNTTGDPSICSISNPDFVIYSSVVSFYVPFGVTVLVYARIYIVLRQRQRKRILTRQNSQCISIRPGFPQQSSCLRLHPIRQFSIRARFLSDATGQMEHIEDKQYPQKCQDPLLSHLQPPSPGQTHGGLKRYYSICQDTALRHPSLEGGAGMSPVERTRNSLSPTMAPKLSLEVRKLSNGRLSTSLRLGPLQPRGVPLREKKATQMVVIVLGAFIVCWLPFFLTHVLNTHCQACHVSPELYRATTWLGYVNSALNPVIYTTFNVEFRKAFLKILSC
UniProt P14842, whole entry: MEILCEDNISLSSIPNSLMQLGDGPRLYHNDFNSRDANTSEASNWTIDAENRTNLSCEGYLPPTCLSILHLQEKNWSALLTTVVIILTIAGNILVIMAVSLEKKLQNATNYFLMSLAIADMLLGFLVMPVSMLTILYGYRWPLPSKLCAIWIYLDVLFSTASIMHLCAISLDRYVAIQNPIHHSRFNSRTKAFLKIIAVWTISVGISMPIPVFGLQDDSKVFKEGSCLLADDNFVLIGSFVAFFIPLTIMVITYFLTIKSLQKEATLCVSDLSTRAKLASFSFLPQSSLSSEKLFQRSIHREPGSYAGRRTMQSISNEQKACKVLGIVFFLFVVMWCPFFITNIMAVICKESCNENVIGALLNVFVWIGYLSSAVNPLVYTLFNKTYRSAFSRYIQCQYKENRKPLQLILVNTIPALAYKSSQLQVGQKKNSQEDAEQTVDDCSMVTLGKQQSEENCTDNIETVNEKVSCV

Tests used:
DA-3 receptors = target: T1, DA-3 receptors (Rattus norvegicus, UniProt P19020); test: [3H]-7-OH-DPAT binding to DA-3 receptors (rat olfactory tubercle); settings: average ± standard error, read-out: D3 affinity Ki
T1 construct: olfactory tubercle for DA-3 receptors; from tissue; host or cells: rat olfactory tubercle membranes

5-HT2A receptors = 5-HT2A receptors (Rattus norvegicus, UniProt P14842); test: [3H]Ketanserin binding to 5-HT2A receptors (rat cortex); settings: for Log Y: from 5HT2, D2 and D1 affinities, classic Log Y>6.48, atypical Log Y<6.48 (Meltzer)

With `CN1CCN(C2Cn3cccc3Sc3ccccc32)CC1` (racemic) [(±)-3a, (±)-9-(4-methylpiperazin-1-yl)-9,10-dihydropyrrolo[2,1-b][1,3]benzothiazepine] the Ki (DA-3 receptors) was 0.057 µM.
`CN1CCN(C2Cn3cccc3Sc3ccc(F)cc32)CC1` (racemic) [ST1456, (±)-7-fluoro-9-(4-methylpiperazin-1-yl)-9,10-dihydropyrrolo[2,1-b][1,3]benzothiazepine] was tested, and the Ki (DA-3 receptors) was 0.0122 µM and the “Log Y” value (5-HT2A receptors) was 5.39.
`CN1CCN([C@@H]2Cc3ccccc3Sc3ccc(Cl)cc32)CC1` [R-(−)-Octoclothepin] was tested, and the Ki (5-HT2A receptors; 5HT2A pKi) was 0.000158 µM and the “Log Y” value (5-HT2A receptors) was 5.87.
`CN1CCN(C2Cc3ccccc3Sc3ccc(Cl)cc32)CC1` (stereo not drawn) [RS-Octoclothepin, 8-chloro-10-(4-methylpiperazino)-10,11-dihydrodibenzo[b,f]thiepin] was tested, and the “Log Y” value (5-HT2A receptors) was 8.02.
